Reference: patent US20240310365A1, “DEVICE FOR EVALUATING INNER EAR DRUG DELIVERY” (North Carolina State University, priority 2023, published 2024)

Test system: porcine RWM
Assay: Ex-vivo porcine RWM device permeability measurement
Format: in vitro ADME

Substance: dexamethasone fluorescein [DexF]
- passage through the RWM (comparison in words) (healthy explants): less efficiently than Dex
- passage through lowered metabolic activity and leaky membranes (comparison in words) (versus healthy and non-leaky explants): higher than healthy and non-leaky explants
